The values below come from ChEMBL document CHEMBL1134394, “Synthesis and biological activity of aminoguanidine and diaminoguanidine analogues of the antidiabetic/antiobesity agent 3-guanidinopropionic acid” (2001).

Each structure is given as a SMILES string.

The nature of this test: In vivo blood glucose was determined in obese, hyperglycemic, hyperinsulinemic, insulin-resistant KKAy mice after a dose of 500 mg/kg for 4 days.

Regarding `N/C(=N/N=C/C(=O)O)N[N+](=O)[O-]`, the MISS T/C turned out to be 1.23.
